Test results published in US4593119A, “Method for treatment or prophylaxis of cardiac disorders” (American Hospital Supply Corporation, priority 1982, dated 1986).

The chains behind the UniProt entries cited, without tags or fusion partners.
UniProt Q8K4Z4, whole entry: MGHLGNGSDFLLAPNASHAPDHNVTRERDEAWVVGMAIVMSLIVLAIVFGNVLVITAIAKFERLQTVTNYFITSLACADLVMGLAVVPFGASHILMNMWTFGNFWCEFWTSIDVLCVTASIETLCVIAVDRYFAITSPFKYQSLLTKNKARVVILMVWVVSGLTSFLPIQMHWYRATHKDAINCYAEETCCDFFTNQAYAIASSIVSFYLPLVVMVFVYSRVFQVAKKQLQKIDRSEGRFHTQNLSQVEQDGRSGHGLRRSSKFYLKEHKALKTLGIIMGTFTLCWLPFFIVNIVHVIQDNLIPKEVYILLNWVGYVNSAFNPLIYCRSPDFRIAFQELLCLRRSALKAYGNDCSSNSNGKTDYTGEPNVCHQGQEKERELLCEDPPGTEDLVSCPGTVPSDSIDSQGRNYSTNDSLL

Molecular target: T1, β-adrenergic receptors, guinea pig tracheal strips (Cavia porcellus, UniProt Q8K4Z4)
T1 construct: Spiral strips of guinea pig trachea; from tissue; host or cells: guinea pig trachea, spiral strips
Experiment: β-blocking activity in vitro, guinea pig tracheal strips (tension response to isoproterenol)
Assay type: cell-based
Conditions: pA2 = -log KB, vs isoproterenol, 60-minute incubation
Description: Each tissue was suspended between a fixed glass rod and a Statham Universal Transducer connected to a Beckman recorder. Atria were allowed to beat spontaneously under a loading tension of approximately 0.5 g. Changes in rate of response to isoproterenol, a standard β-receptor agonist, were measured in the absence and presence of test compounds. Spiral strips of guinea pig trachea were suspended under 5 g resting tension and incubated with phentolamine, tropolone, and cocaine. Active tension was generated by addition of carbachol (3.0×10^-7 M) and decreases in tension in response to isoproterenol were quantitated. Cumulative concentration response curves were produced with isoproterenol both before and after 60-minute incubation of test compounds with atria and trachea. Compounds with β-blocking activitiy shifted concentration response curves to the right. […] The degree of cardioselectivity was estimated from the ratio KB trachea/KB atria 10(pA2 Atria -pA^2 Trachea). A ratio greater than one indicates cardioselectivity. […]

`COC(=O)CCc1ccc(OCC(O)CNCc2ccccc2)cc1` (stereo not shown) [VII] was tested, and the “pA2 Trachea” value was 4.9.
